Source: PubChem BioAssay AID619 (University of Pittsburgh Molecular Library Screening Center, 2007)
The entries are a selection whose mix differs from that of the whole data set. Activity calls are given as the source filed them.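 The calls were made as follows: active = inhibition of 50% or more in the single-concentration screen; inactive = inhibition below 50%.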

Protein sequences, listed by entry. Tags and fused reporters are not part of them.
UniProt P53350, whole entry, looked up: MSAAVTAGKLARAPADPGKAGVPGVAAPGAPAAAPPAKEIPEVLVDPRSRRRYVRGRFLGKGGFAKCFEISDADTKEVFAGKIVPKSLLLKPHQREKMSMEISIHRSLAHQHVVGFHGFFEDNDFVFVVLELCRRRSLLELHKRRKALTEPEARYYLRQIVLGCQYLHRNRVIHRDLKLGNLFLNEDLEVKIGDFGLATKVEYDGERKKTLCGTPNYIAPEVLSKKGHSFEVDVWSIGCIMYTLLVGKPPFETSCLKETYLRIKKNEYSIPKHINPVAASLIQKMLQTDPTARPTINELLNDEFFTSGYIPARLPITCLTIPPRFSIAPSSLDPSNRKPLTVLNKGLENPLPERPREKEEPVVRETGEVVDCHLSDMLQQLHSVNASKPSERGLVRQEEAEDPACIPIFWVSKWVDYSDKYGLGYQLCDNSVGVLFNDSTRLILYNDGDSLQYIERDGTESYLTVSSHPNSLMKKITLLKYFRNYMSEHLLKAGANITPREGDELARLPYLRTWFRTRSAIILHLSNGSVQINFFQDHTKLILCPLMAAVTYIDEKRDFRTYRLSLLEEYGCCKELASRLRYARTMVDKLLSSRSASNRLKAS

The molecules below were run against Serine/threonine-protein kinase PLK1 (Homo sapiens) (UniProt P53350) (assay: Plk1 peptide phosphorylation blockers – biochemical, TR-FRET, primary screen (AID 619;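 also: 0% = DMSO max control and 100% = H-89 dihydrochloride min control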)). Conditions: recombinant PLK1 kinase, at 10 µM, stronger effect = higher value.
In the case of `O=C(OC1CN2CCC1CC2)c1cccc(Cl)c1` (stereo not drawn), the inhibition is reported as inactive: -1.54%.
In the case of `c1nnnn1CCn1cnnn1`, the inhibition is reported as inactive: -8.3%.
For `O=P(Nc1nccs1)(c1ccccc1)c1ccccc1`, the inhibition was inactive: 7.52%.
`O=P1(Nc2nc3ccc(Cl)cc3s2)COc2ccccc2O1` (stereo not drawn) was tested, and the inhibition was inactive: -7.38%.
`COC(=O)c1cc2c(s1)N=C(c1ccccc1)N(C)P2(=O)N1CCOCC1` (stereo not drawn) was tested, and the inhibition was inactive: -6.93%.
With `CCC(=O)N1C2C3N(C(=O)CC)C1C1N(C(=O)CC)C(C(N1C(=O)CC)N3C(=O)CC)N2C(=O)CC` the inhibition was inactive: -3.6%.
In the case of `CCOC(=O)NC(Sc1ccccc1)C(Cl)(Cl)Cl` (stereo not drawn), the inhibition is reported as inactive: -11.3%.
With `CCOP(=O)(Nc1ccccc1)OCC` the inhibition was inactive: -16.4%.
`CC(C)CC(=O)NC(Sc1ccc(Cl)cc1)C(Cl)(Cl)Cl` (stereo not drawn) was tested, and the inhibition was inactive: -9.28%.
For `Cc1c2non([O-])c-2c(C)[n+](=O)[n+]1[O-]`, the inhibition was inactive: -6.35%.
For `Oc1ccccc1CNc1ccccn1`, the inhibition was inactive: -6.93%.
`CN1CCCC(OC(=O)C(c2ccccc2)c2ccccc2)C1` (stereo not drawn) was tested, and the inhibition was inactive: -5.77%.
With `CC1CCN(C(=O)Oc2c(Cl)cc(Cl)c3cccnc23)CC1` the inhibition was inactive: -1.49%.
For `O=[N+]([O-])c1cccc2n[nH]nc12`, the inhibition was inactive: -9.5%.
With `CC(=O)N1C2C3N(C(C)=O)C1C1N(C(C)=O)C(C(N1C(C)=O)N3C(C)=O)N2C(C)=O` the inhibition was inactive: -9.23%.
`CCc1nc2c(n1)c1c(non1O)c1c2no[n+]1[O-]` was tested, and the inhibition was inactive: 12.2%.
In the case of `CCC(C)N(CC(C)C)C(=S)SC(NC(C)=O)C(Cl)(Cl)Cl` (stereo not drawn), the inhibition is reported as inactive: -10%.
In the case of `O=C(COc1ccccc1)OC1CN2CCC1CC2` (stereo not drawn), the inhibition is reported as inactive: -6.71%.
With `COP1(=S)c2c(C)nn(CCC#N)c2N=C(c2ccc(F)cc2)N1C` (stereo not drawn) the inhibition was inactive: -9.23%.
With `O=C(OC1CN2CCC1CC2)C12CC3CC(CC(C3)C1)C2` (stereo not drawn) the inhibition was inactive: -3.78%.
With `CCN(CC)C(=S)SC(NC=O)C(Cl)(Cl)Cl` (stereo not drawn) the inhibition was inactive: -2.58%.
With `ClCCSc1nnc(-c2cccnc2)o1` the inhibition was inactive: -7.85%.
In the case of `O=[N+]([O-])c1ccc2c(c1)nnn2O`, the inhibition is reported as inactive: -9.67%.
For `CCOP1(=S)c2c(C)nn(CCC#N)c2N=C(c2ccc(F)cc2)N1C` (stereo not drawn), the inhibition was inactive: -8.06%.
In the case of `CCOP1(=S)c2c(C)nn(CCC#N)c2N=C(c2ccccc2F)N1C` (stereo not drawn), the inhibition is reported as inactive: -9.8%.
With `Cc1cccc(OCC(=O)OC2CN3CCC2CC3)c1` (stereo not drawn) the inhibition was inactive: -7.77%.
With `CC1(CBr)Cn2c(nc3ccccc3c2=O)S1` (stereo not drawn) the inhibition was inactive: -14.5%.
`Clc1n[nH]nc1-c1nn[nH][15n]1` was tested, and the inhibition was inactive: -6.1%.
For `O=P1(Nc2ccccn2)COc2ccccc2OC1`, the inhibition was inactive: -15.2%.
In the case of `O=P1(Nc2ccc(Br)cn2)COc2ccccc2OC1`, the inhibition is reported as inactive: 13.5%.
In the case of `Cc1ccc(OCC(=O)OC2CN3CCC2CC3)cc1` (stereo not drawn), the inhibition is reported as inactive: -10.7%.
For `O=P1(Nc2ncccn2)COc2ccccc2OC1`, the inhibition was inactive: -17.7%.
For `Cc1nn(-c2ccccc2)c2c1P(=O)(N1CCOCC1)N(C)C(c1ccccc1)=N2` (stereo not drawn), the inhibition was inactive: -12.5%.
